Earlier results on one substance are cited in patent publication US20110027291A1, “METHODS, SYSTEMS AND PRODUCTS FOR PREDICTING RESPONSE OF TUMOR CELLS TO A THERAPEUTIC AGENT AND TREATING A PATIENT ACCORDING TO THE PREDICTED RESPONSE” (MERRIMACK PHARMACEUTICALS, INC., priority 2008, published 2011).

This data set deals with tumors known to express ErbB1 (EGFR). As to conditions: patients, even when tumors are known to express ErbB1 (EGFR); cited from earlier work.

With “cetuximab: monoclonal antibody that targets the epidermal growth factor receptor (EGFR, ErbB1)”, the “average response rate, monotherapy” value is on record as 15-20 % of patients.
